Like-named read-outs stand apart in the source and are kept apart here.

Holding throughout (test): biochemical
What all share (type): binding

In test [1] the target is DRB1*0802 (Homo sapiens, UniProt P01903+P01911, A100R/A103L/A169T/F76Y/H45Y/I96F/K41T/L162R/M171V/P40S/Q125H/Q178H/Q39Y/Q99D/R218S/R42G/S66Y/V115G/W38E).
Test [2] has as its target DRB1*0701 (Homo sapiens, UniProt P01903+P01911, A100R/A102G/A103Q/D57E/D86V/E43K/F76Y/K127E/L162R/M171V/P40G/Q125H/Q99D/R33Q/R42Y/R54Q/S133A/S66F/T210M/V115G/Y107V/Y59L/Y89S).
The target in test [3] is DRB1*1501 (Homo sapiens, UniProt P01903+P01911).
In test [4] the target is DRB1*1101 (Homo sapiens, UniProt P01903+P01911, A100R/A169T/A87E/I96F/K41T/L162R/M171V/P40S/Q125H/Q178H/Q39Y/Q99D/R42S/S66Y/T262R/V115G/W38E).
For test [5], the target named is DRB1*1302 (Homo sapiens, UniProt P01903+P01911, A100E/A169T/K41T/L162R/M171V/P40S/Q125H/Q178H/Q39Y/Q99D/R42S/S66N/T262R/V115G/W38E/Y61H).
The target of test [6] is DRB1*0401 (Homo sapiens, UniProt P01903+P01911, A100K/A169T/F76Y/I96L/K127E/L162R/M171V/N62H/P40V/Q125Y/R42H/S133A/S149N/S66Y/V115G/V209L/W38E).
Test [7] addresses DRB1*0404 (Homo sapiens, UniProt P01903+P01911, A100R/A169T/F76Y/I96L/K127E/L162R/M171V/N62H/P40V/Q125Y/R42H/S133A/S149N/S66Y/V209L/W38E).
In test [8] the target is DRB1*0901 (Homo sapiens, UniProt P01903+P01911, A100R/A103E/D57H/D86V/F55Y/F60I/F76Y/I96F/K127E/L162R/M171V/P40D/Q125H/Q99R/R33Q/R42F/S133A/S66N/T210M/V115G/W38K/Y107V/Y59G/Y89S).
The target in test [9] is DRB1*0405 (Homo sapiens, UniProt P01903+P01911, A100R/A169T/D86S/F76Y/I96L/K127E/L162R/M171V/N62H/P40V/Q125Y/R42H/S133A/S149N/S66Y/V115G/V209L/W38E).
Test [10] has as its target DRB1*0301 (Homo sapiens, UniProt P01903+P01911, A100K/A102G/A103R/A169T/F55Y/I96L/K41T/L162R/M171V/P40S/Q125H/Q178H/Q39Y/R42S/S66N/T106N/T262R/W38E/Y61H).
Test [11] concerns the target DRB1*0101 (Homo sapiens, UniProt P01903+P01911, A100R/D57E/F55L/F60I/F76Y/I96L/L162R/M171V/P40L/Q125E/R42F/V115G/Y59C).
[12] abbreviates: read-out: Binding Affinity (nM) DRB1*0301.
Setting [13] is: read-out: Binding Affinity (nM) DRB1*1101.
[14] abbreviates: read-out: Binding Affinity (nM) DRB1*0404.
Where [15] appears, read: read-out: Binding Affinity (nM) DRB1*0405.

Take `CC[C@H](C)[C@H](NC(=O)[C@H](CC(C)C)NC(=O)[C@H](CO)NC(=O)CNC(=O)[C@H](CS)NC(=O)[C@H](Cc1c[nH]c2ccccc12)NC(=O)[C@H](CCC(N)=O)NC(=O)[C@H](CC(=O)O)NC(=O)[C@H](CCC(=O)O)NC(=O)[C@H](CCCNC(=N)N)NC(=O)[C@H](CCCCN)NC(=O)CNC(=O)[C@H](CC(C)C)NC(=O)[C@@H](N)Cc1ccc(O)cc1)C(=O)NCC(=O)N[C@@H](CC(C)C)C(=O)N[C@H](C(=O)O)[C@@H](C)O` [NS5 838-854]: the IC50 in [1] came to 573 nM; in test [2] it was 2780 nM; in test [3] it was 2900 nM; in test [4], 10500 nM; in test [5] (competitive inhibition of radiolabeled standard peptide, DRB1*1302, read-out: Binding Affinity (nM) DRB1*1302), 12000 nM; in [6] it was 3550 nM. Moreover, the IC50 is 2090 nM in test [7]; 680 nM in test [8] (competitive inhibition of radiolabeled standard peptide, DRB1*0901, read-out: Binding Affinity (nM) DRB1*0901); 1470 nM in test [9]; above 20000 nM in test [10] (setting [12]).

Consider `CC[C@H](C)[C@H](NC(=O)[C@@H](N)C(C)C)C(=O)N[C@@H](CC(C)C)C(=O)N[C@H](C(=O)N[C@@H](CC(=O)O)C(=O)NCC(=O)N1CCC[C@H]1C(=O)N[C@@H](CCC(=O)O)C(=O)N[C@@H](CCCNC(=N)N)C(=O)N[C@H](C(=O)N[C@H](C(=O)N[C@@H](CC(C)C)C(=O)N[C@@H](C)C(=O)NCC(=O)N1CCC[C@H]1C(=O)O)[C@@H](C)CC)C(C)C)[C@@H](C)O` [NS3 433-447], for which the IC50 in test [1] was 8720 nM; in test [2] it was 18800 nM; in test [3] it was 1730 nM; in test [4] (setting [13]), above 20000 nM; in [5] it was 24 nM; in test [6], 4180 nM. Besides, the IC50 in test [7] was determined as 5110 nM; in test [8], 3760 nM; in test [9], 3980 nM; in test [10], 69 nM.

For `CC[C@H](C)[C@H](NC(=O)[C@H](C)NC(=O)[C@@H](NC(=O)[C@H](C)NC(=O)[C@H](CC(C)C)NC(=O)[C@H](CCCNC(=N)N)NC(=O)[C@H](CCCCN)NC(=O)[C@@H]1CCCN1C(=O)[C@H](CO)NC(=O)[C@H](CC(=O)O)NC(=O)[C@H](C)NC(=O)[C@H](CCC(N)=O)NC(=O)[C@H](Cc1ccccc1)NC(=O)[C@@H](N)CCCCN)[C@@H](C)O)C(=O)N[C@@H](C)C(=O)O` [NS1 33-47], the IC50 in [1] is 15600 nM; in test [2], 9700 nM; in test [3] (read-out: Binding Affinity (nM) DRB1*1501) it was above 20000 nM; in [11], 46 nM; in test [6] it was 2410 nM; in test [7] (setting [14]), above 20000 nM. The IC50 in test [8] is 1530 nM; in test [9] (setting [15]), above 20000 nM; in test [10], 1600 nM.

In the case of `CSCC[C@H](NC(=O)CNC(=O)CNC(=O)[C@H](Cc1c[nH]cn1)NC(=O)[C@H](CCCCN)NC(=O)[C@H](CCCNC(=N)N)NC(=O)[C@H](CCC(N)=O)NC(=O)[C@H](CC(C)C)NC(=O)[C@H](CCCNC(=N)N)NC(=O)[C@H](CCC(=O)O)NC(=O)[C@@H](N)CC(C)C)C(=O)N[C@@H](CC(C)C)C(=O)N[C@H](C(=O)N[C@@H](CCCNC(=N)N)C(=O)N[C@@H](CC(N)=O)C(=O)N1CCC[C@H]1C(=O)N[C@@H](CC(C)C)C(=O)O)C(C)C` [NS5 193-209], the IC50 in test [1] (read-out: Binding Affinity (nM) DRB1*0802) is above 20000 nM; in [2], 144 nM; in test [3], 199 nM; in test [4], 110 nM; in test [5], 15 nM; in [6], 6380 nM. Besides, the IC50 was above 20000 nM in test [7] (setting [14]), 1130 nM in test [8], above 20000 nM in test [9] (setting [15]) and 7460 nM in [10].

On to `CC[C@H](C)[C@H](NC(=O)[C@@H](NC(=O)[C@H](CC(C)C)NC(=O)[C@H](CC(N)=O)NC(=O)[C@H](CCCNC(=N)N)NC(=O)[C@H](CCCCN)NC(=O)[C@@H](N)CCCCN)[C@@H](C)O)C(=O)N[C@@H](CCSC)C(=O)N[C@@H](CC(=O)O)C(=O)N[C@@H](CC(C)C)C(=O)N[C@@H](Cc1c[nH]cn1)C(=O)N1CCC[C@H]1C(=O)NCC(=O)N[C@@H](CO)C(=O)NCC(=O)O` [NS3 185-199], for which the IC50 was 21 nM in [1]; above 20000 nM in test [2] (read-out: Binding Affinity (nM) DRB1*0701); 1840 nM in [3]; 72 nM in test [4]; 3640 nM in [5]; 171 nM in test [6]. Moreover, the IC50 came out at 2360 nM in test [7], 6190 nM in test [8], 972 nM in [9] and 870 nM in test [10].

Consider `CC[C@H](C)[C@H](N)C(=O)N[C@@H](CCCNC(=N)N)C(=O)N[C@@H](Cc1ccc(O)cc1)C(=O)N[C@@H](CCC(N)=O)C(=O)N[C@H](C(=O)N[C@H](C(=O)N[C@@H](C)C(=O)N[C@H](C(=O)N[C@@H](CCCCN)C(=O)N[C@@H](CO)C(=O)N[C@@H](CCC(=O)O)C(=O)N[C@@H](Cc1c[nH]cn1)C(=O)N[C@H](C(=O)NCC(=O)N[C@@H](CCCNC(=N)N)C(=O)O)[C@@H](C)O)[C@@H](C)O)[C@@H](C)O)[C@@H](C)O` [NS3 241-255], for which the IC50 in [1] worked out at 5440 nM; in test [2], 525 nM; in test [3], 14500 nM; in [4], 2570 nM; in test [5], 5910 nM; in test [11], 1130 nM. Further, the IC50 in test [6] was 303 nM; in test [8] it was 4910 nM; in test [9] it was 75 nM; in test [10] (setting [12]), above 20000 nM.

As for `CC[C@H](C)[C@H](N)C(=O)N[C@H](C(=O)N[C@H](C(=O)NCC(=O)N[C@H](C(=O)NCC(=O)N[C@@H](CC(=O)O)C(=O)N[C@@H](CC(N)=O)C(=O)N[C@@H](C)C(=O)N[C@@H](CC(C)C)C(=O)N[C@@H](CCCCN)C(=O)N[C@H](C(=O)N[C@@H](CC(N)=O)C(=O)N[C@@H](Cc1c[nH]c2ccccc12)C(=O)N[C@@H](Cc1ccc(O)cc1)C(=O)O)[C@@H](C)CC)[C@@H](C)CC)[C@@H](C)CC)C(C)C` [Envelope 376-390], the IC50 is 85 nM in [1]; 2980 nM in [2]; 448 nM in test [3]; above 20000 nM in [4] (setting [13]); 476 nM in test [11]; 4980 nM in test [6]. Besides, the IC50 was 1090 nM in [7]; 6030 nM in [8] (competitive inhibition of radiolabeled standard peptide, '-' distinct from ND, read-out: Binding Affinity (nM) DRB1*0901); 10300 nM in test [9].

As for `CC(C)C[C@H](NC(=O)[C@H](Cc1ccccc1)NC(=O)CN)C(=O)N[C@@H](CC(N)=O)C(=O)N[C@@H](CCC(=O)O)C(=O)N[C@@H](CC(=O)O)C(=O)N[C@@H](Cc1c[nH]cn1)C(=O)N[C@@H](Cc1c[nH]c2ccccc12)C(=O)N[C@@H](Cc1ccccc1)C(=O)N[C@@H](CO)C(=O)N[C@@H](CCCNC(=N)N)C(=O)N[C@@H](CCC(=O)O)C(=O)N[C@@H](CC(N)=O)C(=O)N[C@@H](CO)C(=O)N[C@@H](Cc1ccc(O)cc1)C(=O)N[C@@H](CO)C(=O)NCC(=O)O` [NS5 489-505], the IC50 is 6260 nM in [1]; 4320 nM in test [2]; 2890 nM in test [3]; 1950 nM in test [4]; above 20000 nM in [5] (read-out: Binding Affinity (nM) DRB1*1302); 231 nM in [11]. For the same molecule, the IC50 in [6] was 27 nM; in test [8], 3000 nM; in [10] it was 118 nM.

For the origin of these results see article PMC3794980, “Identification of Conserved and HLA Promiscuous DENV3 T-Cell Epitopes” (PLoS Neglected Tropical Diseases, 2013).
